For 25 molecules, binding signal results are on record in paper PMC7723054.

What all share (test): FOREST: bead pull-down of RNA structure library v1, barcode microarray; U1A/LIN28A: 20 mM HEPES pH 7.5, 80 mM KCl, 20 mM NaCl, 10% glycerol, 2 mM DTT, 0.1 ug/uL BSA, 4 C; BG4/CIRBP/DHX36: 10 mM Tris-HCl pH 7.5, 100 mM KCl (or LiCl),; high values mean tight binding
In one test the target is T1, LIN28A (human?, UniProt Q9H9Z2 1-209).
T1 sequence: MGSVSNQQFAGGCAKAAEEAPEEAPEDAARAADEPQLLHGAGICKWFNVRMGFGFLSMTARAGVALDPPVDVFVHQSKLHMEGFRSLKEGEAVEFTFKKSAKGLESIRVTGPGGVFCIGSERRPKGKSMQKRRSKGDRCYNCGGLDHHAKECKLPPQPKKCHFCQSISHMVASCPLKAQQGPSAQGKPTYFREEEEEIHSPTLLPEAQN

A further test deals with T2, CIRBP (Homo sapiens, UniProt Q14011 1-172).
T2 sequence: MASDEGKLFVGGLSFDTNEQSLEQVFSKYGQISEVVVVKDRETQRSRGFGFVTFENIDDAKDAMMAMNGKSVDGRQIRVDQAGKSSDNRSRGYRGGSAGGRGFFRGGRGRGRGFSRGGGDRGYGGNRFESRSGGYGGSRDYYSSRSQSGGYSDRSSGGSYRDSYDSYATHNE

The next test deals with T3, DHX36 (Homo sapiens, UniProt Q9H2U1 1-1008).
T3 sequence: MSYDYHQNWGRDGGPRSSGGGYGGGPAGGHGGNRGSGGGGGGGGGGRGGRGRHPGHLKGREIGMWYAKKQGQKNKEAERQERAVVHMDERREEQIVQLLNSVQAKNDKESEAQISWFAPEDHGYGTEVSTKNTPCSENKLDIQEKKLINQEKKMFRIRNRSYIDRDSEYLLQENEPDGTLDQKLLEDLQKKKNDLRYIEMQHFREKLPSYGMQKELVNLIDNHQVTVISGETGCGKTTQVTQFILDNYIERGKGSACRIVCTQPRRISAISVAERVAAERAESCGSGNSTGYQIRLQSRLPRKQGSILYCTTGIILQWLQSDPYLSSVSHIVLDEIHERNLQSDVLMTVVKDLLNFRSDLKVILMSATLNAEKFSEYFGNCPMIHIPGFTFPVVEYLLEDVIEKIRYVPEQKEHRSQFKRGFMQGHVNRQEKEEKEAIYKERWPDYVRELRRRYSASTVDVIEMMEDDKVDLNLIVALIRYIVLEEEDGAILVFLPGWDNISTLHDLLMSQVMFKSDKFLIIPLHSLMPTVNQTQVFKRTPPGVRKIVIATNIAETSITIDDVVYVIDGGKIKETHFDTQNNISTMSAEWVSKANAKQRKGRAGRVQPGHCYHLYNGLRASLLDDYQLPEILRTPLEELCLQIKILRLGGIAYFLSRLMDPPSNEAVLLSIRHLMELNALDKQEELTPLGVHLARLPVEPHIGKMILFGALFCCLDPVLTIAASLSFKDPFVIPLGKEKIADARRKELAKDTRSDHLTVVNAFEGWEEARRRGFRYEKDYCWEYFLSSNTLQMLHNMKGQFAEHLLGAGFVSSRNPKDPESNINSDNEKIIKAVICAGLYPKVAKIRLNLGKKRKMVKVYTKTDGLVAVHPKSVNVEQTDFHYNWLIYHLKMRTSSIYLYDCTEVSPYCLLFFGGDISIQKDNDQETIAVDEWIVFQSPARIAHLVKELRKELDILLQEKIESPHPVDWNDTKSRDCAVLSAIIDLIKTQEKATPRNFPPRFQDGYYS

Some of the results follow.

B1: hsa-mir-1262 (structured_RNA)
RNA: GGGAGGCCUGCAUAAAACUCACUAGGUCGGUGUACGAAGUUUCAGCGGAUGAAAGUCAAAGAAUCCGCUGAAGCUUCGUGCAC
As to B1, the binding signal was 0.644 z-score with LIN28A, 0.142 z-score with CIRBP and -0.48 z-score in the test with DHX36.

B2: hsa-mir-3937 (structured_RNA)
RNA: GGGAGGACGUUCGGUAAAGAUAUUCGUCGGUGUACGAAGUUUCAGCCUGUUGUUUCAGCUCGACAACAACAGGCUGAAGCUUCGUGCAC
On to B2, for which the binding signal in the test with LIN28A was 0.66 z-score; with CIRBP it was 0.517 z-score; with DHX36 it was 0.303 z-score.

B3: hsa-mir-4794 (structured_RNA)
RNA: GGGAAAGGUUACCGUGGUAAGAAGAACCGGUGUACGAAGUUUCAGCCUGUAUGUCCUAACAGUGCUUGUAGGCUGAAGCUUCGUGCAC
Turning to B3, the binding signal with LIN28A was 0.627 z-score; in the test with CIRBP, 0.789 z-score; with DHX36, 0.218 z-score.

B4: hsa-mir-514b (structured_RNA)
RNA: GGGAACCAUAAAGAGGGCACUAUCAAGUGGUGUACGAAGUUUCAGCCAAUCAUGUGUAAUUAGAUAUGAUUGGCUGAAGCUUCGUGCAC
In the case of B4, the binding signal in the test with LIN28A was 0.677 z-score; with CIRBP, 0.877 z-score; in the test with DHX36, -0.176 z-score.

B5: hsa-mir-323a (structured_RNA)
RNA: GGGAAAAGAGGUGCUACGGUCUGAUUACGGUGUACGAAGUUUCAGCCGUUCGCUUUAUUUAUGGCGCACAGCUGAAGCUUCGUGCAC
Consider B5, for which the binding signal worked out at 0.651 z-score in the test with LIN28A, 1.2 z-score in the test with CIRBP and 0.596 z-score with DHX36.

B6: hsa-mir-4735 (structured_RNA)
RNA: GGGAGAGUGGCAAUAUGGUACAGCCGCUGGUGUACGAAGUUUCAGCCUUCGGUAUUCAUCAAAAAUACCAAAGGCUGAAGCUUCGUGCAC
On to B6, for which the binding signal with LIN28A was 0.652 z-score; with CIRBP it was -0.328 z-score; with DHX36, 0.783 z-score.

B7: hsa-mir-432 (structured_RNA)
RNA: GGGAAUUUGAGGGCGUCCAACGCACUAGGGUGUACGAAGUUUCAGCUGGGUGGAUCCUCUAUUUCCUUACGUGGGCCACUGGGCUGAAGCUUCGUGCAC
Regarding B7, the binding signal with LIN28A was found to be 0.643 z-score; in the test with CIRBP it was 0.49 z-score; in the test with DHX36 it was 0.606 z-score.

B8: hsa-mir-1912 (structured_RNA)
RNA: GGGACAUUACCAUCCUGUAGUAGUCGGCGGUGUACGAAGUUUCAGCUGUAUAGUAUUAUUCAAUACCGCUGAAGCUUCGUGCAC
B8: the binding signal with LIN28A is 0.678 z-score; in the test with CIRBP, -0.799 z-score; in the test with DHX36, -1.02 z-score.

B9: hsa-mir-4464 (structured_RNA)
RNA: GGGAAAGCGGUCUUAUGCAACAACAUGCGGUGUACGAAGUUUCAGCAAUAAAGUAUGUCCACAGCUGAAAGGACAUACUUUAUUGCUGAAGCUUCGUGCAC
With B9, the binding signal in the test with LIN28A worked out at 0.688 z-score; with CIRBP, 1.09 z-score; in the test with DHX36 it was 0.829 z-score.

B10: hsa-mir-2278 (structured_RNA)
RNA: GGGAGCUGGCUUGUCCGUUUGUUGGAAAGGUGUACGAAGUUUCAGCCUGGGGACUGUGUGGACUGGUAUCACCCAGGCUGAAGCUUCGUGCAC
For the molecule B10, the binding signal with LIN28A is 0.632 z-score; in the test with CIRBP, -0.719 z-score; in the test with DHX36 it was 0.62 z-score.

B11: hsa-mir-3909 (structured_RNA)
RNA: GGGACAGAGCGCAGUUAGUACCACCCAAGGUGUACGAAGUUUCAGCGACAGGGAAAAGCACACAAGGAACUUGUCGCUGAAGCUUCGUGCAC
For the molecule B11, the results for the binding signal in the test with LIN28A, with CIRBP and with DHX36 were 0.658 z-score, -0.124 z-score and -0.81 z-score, respectively.

B12: hsa-mir-19a (structured_RNA)
RNA: GGGACAAAGGCUGGUUAGCUGUAUUCGCGGUGUACGAAGUUUCAGCCACUACAAGAAGAAUGUAGUUGUGGCUGAAGCUUCGUGCAC
For B12, the binding signal came to 0.671 z-score with LIN28A, 0.761 z-score in the test with CIRBP and 0.447 z-score in the test with DHX36.

B13: NEAT1_ParasoR_ID19 (structured_RNA)
RNA: GGGAAAAGUGUCUAGUACGAAUGACCAUGGUGUACGAAGUUUCAGCCCCCUAGUCUUUGGUAACCUUUGUUAUACUGGUAAACUUUGUUGUGCUCUCUGUCUGUGUGAAUUUGCCUAUUCUAGGGGGCUGAAGCUUCGUGCAC
B13: the binding signal with LIN28A was 0.633 z-score; in the test with CIRBP, -0.661 z-score; with DHX36, -0.382 z-score.

B14: hsa-mir-17 (structured_RNA)
RNA: GGGAAGAGGGCAGCUACGCCUUCGAAACGGUGUACGAAGUUUCAGCAGGUAGUGAUAUGUGCAUCUACUGCUGAAGCUUCGUGCAC
B14: the binding signal is 0.638 z-score with LIN28A, -1.16 z-score with CIRBP and 0.802 z-score in the test with DHX36.

B15: G4_(GGGUU)8: (structured_RNA)
RNA: GGGCACCGUACUGCCGGCGACAAAGUAUGGUGUACGAAGUUUCAGCGGGUUGGGUUGGGUUGGGUUGGGUUGGGUUGGGUUGGGUUGCUGAAGCUUCGUGCAC
With B15, the binding signal came out at 0.698 z-score in the test with LIN28A, 4.56 z-score with CIRBP and 7.91 z-score with DHX36.

B16: hsa-mir-6732 (structured_RNA)
RNA: GGGAAAUAGGAUGGGGUCCCGAAAUCUAGGUGUACGAAGUUUCAGCCUGGCCAUCAGUGUGGGCUAACGCUGAAGCUUCGUGCAC
As to B16, the figures for the binding signal in the test with LIN28A, with CIRBP and with DHX36 were 0.628 z-score, 1.1 z-score and 0.484 z-score, respectively.

B17: hsa-mir-5007 (structured_RNA)
RNA: GGGAAACCGGAUGAAAGUGGCUGAUCCAGGUGUACGAAGUUUCAGCUGGUUUGACACAGAGCUAAAUCAGCUGAAGCUUCGUGCAC
For B17, the binding signal in the test with LIN28A was 0.702 z-score; with CIRBP it was 1.14 z-score; with DHX36 it was -0.587 z-score.

B18: hsa-mir-1254-2 (structured_RNA)
RNA: GGGAGAAGGUACCCGUUCCCAAGCGAUGGGUGUACGAAGUUUCAGCCAGUGAGCUAUGAUCAUGUCCCUGGCUGAAGCUUCGUGCAC
For B18, the binding signal with LIN28A is 0.641 z-score; with CIRBP it was 0.307 z-score; in the test with DHX36, -0.459 z-score.

B19: hsa-mir-3178 (structured_RNA)
RNA: GGGAAGGUCAGAUUACGCAGUGGAACGGGGUGUACGAAGUUUCAGCAUCGGUCGAGAGCGUCCUGGCUGAUGCUGAAGCUUCGUGCAC
For the molecule B19, the figures for the binding signal with LIN28A, in the test with CIRBP and with DHX36 were 0.639 z-score, 2.55 z-score and 1.06 z-score, respectively.

B20: hsa-mir-99a (structured_RNA)
RNA: GGGAAACAAAACAGGGCCCUAGACACUUGGUGUACGAAGUUUCAGCCUUGUGGUGAAGUGGACCGCACAAGGCUGAAGCUUCGUGCAC
Take B20: the results for the binding signal in the test with LIN28A, with CIRBP and in the test with DHX36 were 0.69 z-score, -0.0254 z-score and -0.237 z-score, respectively.

B21: hsa-mir-200a (structured_RNA)
RNA: GGGACAUUUCCGCAAAACACUCAGACUGGGUGUACGAAGUUUCAGCGCUGGAUUUCCCAGCUUGACUCUAACGCUGAAGCUUCGUGCAC
On to B21, for which the figures for the binding signal with LIN28A, in the test with CIRBP and in the test with DHX36 were 0.665 z-score, -0.196 z-score and -0.107 z-score, respectively.

B22: hsa-mir-3195 (structured_RNA)
RNA: GGGAAUCAGAUCGCGUUGUGCACCAGGAGGUGUACGAAGUUUCAGCGGUUGGCCGCUGACCCCCGCGGGGCCCCCGGCGGCCGCUGAAGCUUCGUGCAC
As for B22, the values for the binding signal in the test with LIN28A, with CIRBP and with DHX36 were 0.687 z-score, -0.425 z-score and 0.35 z-score, respectively.

B23: hsa-mir-505 (structured_RNA)
RNA: GGGAACGUAAGGUACUCAGAUGAGGGUCGGUGUACGAAGUUUCAGCGAUGUUUCUGCCAGUUUAGCGUCGCUGAAGCUUCGUGCAC
Turning to B23, the binding signal came to 0.659 z-score with LIN28A, 0.903 z-score with CIRBP and 0.132 z-score with DHX36.

B24: hsa-mir-606 (structured_RNA)
RNA: GGGAAUUGAAAGUGCCAACAAUGGUGGGGGUGUACGAAGUUUCAGCGUUUUACUAUGAUGAGGUGUGCCAUCCACCCCAUCAUAGUAAACGCUGAAGCUUCGUGCAC
For B24, the binding signal with LIN28A worked out at 0.694 z-score; with CIRBP, 1.15 z-score; with DHX36, 1.67 z-score.

B25: hsa-mir-29c (structured_RNA)
RNA: GGGAAAUGGACGAAUAAGUAUAACGGCAGGUGUACGAAGUUUCAGCGUUCAGAGUCUGUUUUUGUCUAGCGCUGAAGCUUCGUGCAC
Consider B25, for which the binding signal with LIN28A is 0.626 z-score; in the test with CIRBP it was 0.426 z-score; with DHX36, -0.00171 z-score.
